According to PubChem BioAssay (NCATS):
Only a part is listed here, and it is no random draw. Results filed as inconclusive are left out. The source made the active and inactive calls. Unless noted, calls come from the whole dose curve; as a rule, active = well fitted curve in the direction sought with a large enough effect; inconclusive = small, poorly fitted or top-dose-only effect, or another doubt; inactive = no such curve, though single readings can be large; an effect the other way counts as inactive or inconclusive.

Sequences of proteins named here, by UniProt entry; tags and fusion partners are left off. A change or cut given only in a name is not applied to a line headed by its entry.
UniProt Q07343: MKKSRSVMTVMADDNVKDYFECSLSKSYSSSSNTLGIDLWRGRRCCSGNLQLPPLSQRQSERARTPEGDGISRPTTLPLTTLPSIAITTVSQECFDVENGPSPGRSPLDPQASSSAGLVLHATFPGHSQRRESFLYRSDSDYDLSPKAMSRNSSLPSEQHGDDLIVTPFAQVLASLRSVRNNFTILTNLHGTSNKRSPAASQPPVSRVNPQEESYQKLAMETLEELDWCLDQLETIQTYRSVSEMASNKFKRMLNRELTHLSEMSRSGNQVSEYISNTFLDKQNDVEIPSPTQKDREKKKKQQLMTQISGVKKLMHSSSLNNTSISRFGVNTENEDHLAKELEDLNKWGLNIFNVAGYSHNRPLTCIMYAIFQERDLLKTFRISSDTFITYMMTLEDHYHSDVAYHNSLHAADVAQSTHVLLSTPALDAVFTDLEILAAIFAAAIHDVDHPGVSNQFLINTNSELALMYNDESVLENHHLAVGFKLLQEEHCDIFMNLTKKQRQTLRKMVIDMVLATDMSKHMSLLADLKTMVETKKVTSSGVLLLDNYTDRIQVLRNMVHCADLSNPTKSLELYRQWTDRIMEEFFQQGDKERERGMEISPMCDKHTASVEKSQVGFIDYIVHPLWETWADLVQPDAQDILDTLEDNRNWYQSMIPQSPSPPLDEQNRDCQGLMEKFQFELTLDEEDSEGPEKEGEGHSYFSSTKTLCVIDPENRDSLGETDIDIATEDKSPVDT
UniProt A8B2U2: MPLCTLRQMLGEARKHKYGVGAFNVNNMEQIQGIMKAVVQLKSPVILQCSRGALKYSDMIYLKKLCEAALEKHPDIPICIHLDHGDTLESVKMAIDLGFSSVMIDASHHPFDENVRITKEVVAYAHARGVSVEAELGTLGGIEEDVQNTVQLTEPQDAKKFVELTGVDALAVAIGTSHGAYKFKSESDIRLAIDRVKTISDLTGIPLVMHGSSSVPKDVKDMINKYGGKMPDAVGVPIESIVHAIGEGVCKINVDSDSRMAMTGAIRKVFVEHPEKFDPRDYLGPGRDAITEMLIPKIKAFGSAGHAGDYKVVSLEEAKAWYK
UniProt P00883: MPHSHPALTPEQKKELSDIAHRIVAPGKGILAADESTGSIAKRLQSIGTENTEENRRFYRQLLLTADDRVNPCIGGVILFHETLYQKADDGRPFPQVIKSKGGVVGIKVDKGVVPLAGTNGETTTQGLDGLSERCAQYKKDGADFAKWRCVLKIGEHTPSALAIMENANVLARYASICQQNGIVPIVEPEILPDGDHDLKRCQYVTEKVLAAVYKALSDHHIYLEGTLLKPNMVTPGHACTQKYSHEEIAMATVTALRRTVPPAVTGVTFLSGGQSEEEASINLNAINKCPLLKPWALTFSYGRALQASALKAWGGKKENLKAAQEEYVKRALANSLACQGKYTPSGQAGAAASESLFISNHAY

Key:
[1] = NFAT Signaling Pathway (AID 444; active = well fitted curve in either direction with a large enough effect, not every such curve was filed as active;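 note: carbachol stimulus at about its EC50 of 1 µM final; % is set by controls: 0 for no effect and ±100 for the full control effect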); conditions: Jurkat NFAT-bla M1, carbachol, beta-lactamase ratio, 5 h; at 7.69 µM (top of the series) unless noted
[2] = Stat Signaling Pathway (AID 446; active = well fitted curve in either direction with a large enough effect, not every such curve was filed as active;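 note: ME-180 cervical cancer cells given 40 pM IL-6 alongside compound; SIE-controlled beta-lactamase reporter measured as 460/530 nm FRET emission ratio; % is set by controls: 0 for no effect and ±100 for the full control effect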); conditions: ME-180 (cervical carcinoma) SIE beta-lactamase reporter, IL-6 stimulated, 5 h; at 7.69 µM (top of the series) unless noted
In short: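 Overnight-plated ME-180 cells bearing a STAT Inducible Element beta-lactamase reporter; 5 h co-exposure to compound and 40 pM IL-6; values normalized to 300 pM IL-6 and 125 nM JAK inhibitor controls.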

[3] = target: Mitogen-activated protein kinase 10 (Mus musculus) (UniProt Q61831); test: JNK3 AlphaScreen Assay (AID 530; active = well fitted curve in either direction with a large enough effect, not every such curve was filed as active;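 note: kinase came from lysate of stimulated human HepG2 cells; signal reports phosphorylation of biotinylated GST-cJun 1-79 at Ser73 with 10 µM ATP; % is set by controls: 0 for no effect and ±100 for the full control effect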); conditions: JNK3 lysate, c-Jun phosphorylation; at 11.4 µM (top of the series) unless noted
In short: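 Kinase buffer: 20 mM Tris-HCl pH 7.6, 10 mM MgCl2, 1 mM DTT, 0.1 mM Na3VO4, 0.01% Tween-20; ATP 10 uM. Substrate biotin-GST-cJun(1-79), enzyme from activated HepG2 lysates. Detection by Ser73 phospho-antibody AlphaScreen.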

[4] = target: 3',5'-cyclic-AMP phosphodiesterase 4B (Homo sapiens) (UniProt Q07343); test: qHTS Assay for Inhibitors of PDE-IV (AID 607; active = well fitted activation curve with a large enough effect in the main read-out, with a control signal flat, not every such curve was filed as active; note: % of control where 0% means no effect); conditions: HEK293 ACTOne CNG channel cells, membrane potential fluorescence; at 22.9 µM (top of the series)
In short: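 Live HEK293 cells with a modified cyclic nucleotide-gated (CNG) channel report intracellular cAMP via membrane-potential dye fluorescence (ex 535/em 590 nm). Endogenous PDE-IV was targeted. Compounds were tested at up to 22.9 uM final; RO 20-1724 100 uM served as control.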

[5] = qHTS Assay for Inhibitors of Fructose-1,6-bisphosphate Aldolase from Giardia Lamblia: Giardia lamblia growth inhibition (AID 2785); conditions: Giardia lamblia trophozoite growth inhibition; at 38.3 µM (top of the series); note: % is set by controls: 0 for no effect and ±100 for the full control effect; nearly all actives have a fitted effect of over 70% in size
In short: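 Whole-parasite growth test: Giardia WB trophozoites in TYI-S-33 (pH 7.0), 100 per well, incubated 48 h at 37C with compound. ATP content was read by ATPlite luminescence.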

[6] = qHTS Assay for Inhibitors of Fructose-1,6-bisphosphate Aldolase from Giardia Lamblia: Mammalian cellular toxicity (AID 2786); conditions: mammalian cell viability counter-screen; at 57.5 µM (top of the series);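 note: compound exposure lasted 48 h before reading; % is set by controls: 0 for no effect and ±100 for the full control effect; nearly all actives have a fitted effect of over 60% in size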
In short: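 Mammalian cytotoxicity surrogate: Chinese hamster ovary cells exposed to compound for 48 h at 37 °C. Cellular ATP then measured with ATPlite reagent, 20 min incubation.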

[7] = target: Fructose-bisphosphate aldolase (Giardia intestinalis (strain ATCC 50803 / WB clone C6)) (UniProt A8B2U2); test: qHTS Assay for Inhibitors of Fructose-1,6-bisphosphate Aldolase from Giardia Lamblia: Primary screen confirmation (AID 2787); conditions: purified Giardia aldolase enzyme activity; at 57.5 µM (top of the series);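 note: aldolase product measured through coupled diaphorase step turning resazurin into fluorescent resorufin; % is set by controls: 0 for no effect and ±100 for the full control effect; nearly all actives have a fitted effect of over 45% in size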
In short: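 FBPA (40 nM in enzyme reagent, with 30 uM ZnCl2) was preincubated 10 min at RT with compound up to 57.5 uM final. Substrate plus coupled detection system was then added, and fluorescence (525/598 nm) was read after 20 min at RT.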

[8] = target: Fructose-bisphosphate aldolase A (Oryctolagus cuniculus) (UniProt P00883); test: qHTS Assay for Inhibitors of Fructose-1,6-bisphosphate Aldolase from Giardia Lamblia: Rabbit FBPA Selectivity (AID 2794); conditions: Rabbit muscle FBPA enzyme inhibition, selectivity counter-screen; at 57.5 µM (top of the series); note: % is set by controls: 0 for no effect and ±100 for the full control effect; nearly all actives have a fitted effect of over 60% in size
In short: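 Glyceraldehyde-3-phosphate-coupled detection measures rabbit Class I aldolase turnover via AmpLite Red fluorescence. Compounds (final up to 57.5 uM) preincubated 10 min; signal read 20 min post-substrate at RT.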

[9] = qHTS Assay for Inhibitors of Fructose-1,6-bisphosphate Aldolase from Giardia Lamblia: Coupling assay counterscreen confirmation (AID 2795); conditions: GAPDH coupling enzyme counterscreen, biochemical; at 57.5 µM (top of the series); note: % is set by controls: 0 for no effect and ±100 for the full control effect; nearly all actives have a fitted effect of over 55% in size
In short: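 Setup: coupling enzyme reagent, compound pin-transferred to up to 57.5 uM final. Incubation: 10 min RT, then substrate + AmpLite Red for 20 min RT. Detection: fluorescence 525/598 nm.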

NC(=O)Nc1cc([As](=O)(O)O)cc(I)c1O
inactive: activity change, negative = inhibition [1] 9.12% | activity, negative = inhibition [2] 5.03% | activity change, negative = inhibition [3] 2.72% | activation (PDE inhibition) [4] 9.41%

O=P(Nc1nccs1)(c1ccccc1)c1nc2ccccc2s1 (centres undefined)
inactive: activity change, negative = inhibition [5] -17.9% | viability change, negative = toxicity [6] -6.92% | activity change, negative = inhibition [7] -15.5% | activity, negative = inhibition [8] -11.8% | activity change, negative = inhibition [9] -8.01%
